Measurements: patent US20070010489A1 (priority 2002, published 2007)

Each molecule was assayed against T1, recombinant HIV-1 protease (Human immunodeficiency virus type 1 group M subtype B, UniProt P04585) (assay: biochemical). Settings: Ki.
T1 construct: Enzyme: recombinant HIV-1 protease expressed in E. Coli; purchased Bachem California, Inc. H-9040; host or cells: E. coli

| SMILES | Ki [nM] |
| --- | --- |
| COc1ccc(S(=O)(=O)N(CCN(C)C)CC(O)C(Cc2ccc(O)cc2)NC(=O)OC2COC3OCCC23)cc1 (stereo not drawn) | > 1 |
| CCOP(=O)(COc1ccc(CC(NC(=O)OC2COC3OCCC23)C(O)CN(CC(C)C)S(=O)(=O)c2ccc([N+](=O)[O-])cc2)cc1)OCC (stereo not drawn) | 0.01 to 0.1 |
| CC(C)CN(CC(O)C(Cc1ccc(OCP(=O)(O)OC(C)C(=O)O)cc1)NC(=O)OC1COC2OCCC12)S(=O)(=O)c1ccccc1 (stereo not drawn) | 0.01 to 0.1 |
| CC(C)CN(CC(O)C(Cc1ccc(OCP(=O)(OCc2ccccc2)OCc2ccccc2)cc1)NC(=O)OC1COC2OCCC12)S(=O)(=O)c1ccc(C(F)(F)F)cc1 (stereo not drawn) | 0.01 to 0.1 |
| CC(C)CN(CC(O)C(Cc1ccc(OCP(=O)(OCc2ccccc2)OCc2ccccc2)cc1)NC(=O)OC1COC2OCCC12)S(=O)(=O)c1ccc(C#N)cc1 (stereo not drawn) | 0.01 to 0.1 |
| CC(C)CN(CC(O)C(Cc1ccccc1)NC(=O)OC1COC2OCCC12)S(=O)(=O)c1ccc(OCP(=O)(O)NC(C)C(=O)O)cc1 (stereo not drawn) [OH, Ala-OH] | 0.01 to 0.1 |

Same assay, conditions: read-out: HIV-1 protease inhibition Ki

| SMILES | Ki [nM] |
| --- | --- |
| CCCCOC(=O)C(C)NP(=O)(COc1ccc(CC(NC(=O)OC2COC3OCCC23)C(O)CN(CC(C)C)S(=O)(=O)c2ccc(OC)cc2)cc1)NC(C)C(=O)OCCCC (stereo not drawn) [Example 16d] | 0.0187 ± 0.00304 |

The molecules below were run on wild-type HIV-1 strain IIIB (assay: not given). Settings: read-out: Anti-HIV-1 Cell Culture Activity EC50.

| SMILES | EC50 [nM] |
| --- | --- |
| CCOC(=O)C(C)NP(=O)(COc1ccc(CC(NC(=O)OC2COC3OCCC23)C(O)CN(CC(C)C)S(=O)(=O)c2ccc(OC)cc2)cc1)Oc1ccccc1 (stereo not drawn) [GS-16571] | 15 ± 5 |
| CCOC(=O)C(C)OP(=O)(COc1ccc(C[C@H](NC(=O)O[C@H]2CO[C@H]3OCC[C@H]32)[C@H](O)CN(CC(C)C)S(=O)(=O)c2ccc(OC)cc2)cc1)Oc1ccccc1 (stereo partly drawn) [GS-17394] | 20 ± 7 |
